The source of these data is patent US9765068B2, “PRMT5 inhibitors and uses thereof” (Epizyme, Inc., priority 2012, dated 2017).

The chains behind the UniProt entries cited, without tags or fusion partners. A line that says so, or that is headed by a name, gives the form on record, which may keep a tag or linker.
UniProt O14744, other isoform, or with tags, fused parts or gaps: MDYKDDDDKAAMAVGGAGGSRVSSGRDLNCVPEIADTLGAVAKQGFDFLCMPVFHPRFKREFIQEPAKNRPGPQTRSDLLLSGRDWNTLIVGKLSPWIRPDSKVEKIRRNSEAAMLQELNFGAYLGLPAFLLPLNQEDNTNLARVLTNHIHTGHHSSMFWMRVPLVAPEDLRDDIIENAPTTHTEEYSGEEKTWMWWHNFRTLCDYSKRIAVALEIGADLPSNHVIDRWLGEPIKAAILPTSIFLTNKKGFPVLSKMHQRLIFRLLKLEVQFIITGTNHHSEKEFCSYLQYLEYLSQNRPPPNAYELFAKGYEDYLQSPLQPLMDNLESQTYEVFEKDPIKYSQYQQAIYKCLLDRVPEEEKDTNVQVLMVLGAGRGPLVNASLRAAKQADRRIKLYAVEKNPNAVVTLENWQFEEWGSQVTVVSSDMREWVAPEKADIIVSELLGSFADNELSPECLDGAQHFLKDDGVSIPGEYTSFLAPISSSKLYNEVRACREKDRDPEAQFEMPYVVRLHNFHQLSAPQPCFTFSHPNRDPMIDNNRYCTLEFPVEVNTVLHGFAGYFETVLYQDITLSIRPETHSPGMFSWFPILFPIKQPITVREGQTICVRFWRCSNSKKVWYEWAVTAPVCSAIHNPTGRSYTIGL

For the assay, the target named is PRMT5/MEP50 (Homo sapiens (Human), UniProt O14744). Nature of the assay: PRMT5 Biochemical Assay (PRMT5/MEP50 enzyme assay on peptide substrate, 3H-SAM Flashplate). Conditions: PRMT5/MEP50 4 nM, 3H-SAM 75 nM, peptide 40 nM. The source says:
General Materials. S-adenosylmethionine (SAM), S-adenosylhomocysteine (SAH), bicine, KCl, Tween20, dimethylsulfoxide (DMSO), bovine skin gelatin (BSG), and Tris(2-carboxyethyl)phosphine hydrochloride solution (TCEP) were purchased from Sigma-Aldrich at the highest level of purity possible. ^3H-SAM was purchase from American Radiolabeled Chemicals with a specific activity of 80 Ci/mmol. 384-well streptavidin Flashplates were purchased from PerkinElmer.
Substrates. Peptide representative of human histone H4 residues 1-15 was synthesized with a C-terminal linker-affinity tag motif and a C-terminal amide cap by 21st Century Biochemicals. […] The sequence was Ac-[…][K-Biot]-amide (SEQ ID NO.:3).
Full-length human MEP50 (NM_024102) clone was amplified from a human testis cDNA library incorporating a 5′ sequence encoding a 6-histidine tag (MHHHHHH) (SEQ ID NO.:5) fused directly to Arg 2 of MEP50. […]
The assays were all performed in a buffer consisting of 20 mM Bicine (pH=7.6), 1 mM TCEP, 0.005% BSG, and 0.002% Tween20, prepared on the day of use. […] The plates were then read in a PerkinElmer TopCount plate reader to measure the quantity of ^3H-labeled peptide bound to the Flashplate surface, measured as disintegrations per minute (dpm) or alternatively, referred to as counts per minute (cpm). […]

For orientation: IC50 means the concentration that inhibits the measured activity by half.

Take `N[C@H](C(=O)NC[C@@H](O)CN1CCc2ccccc2C1)c1ccccc1` [Compound 63]: the IC50 is 10 to 50 µM.
